Results as given in ChEMBL document CHEMBL4673218, “Kojyl cinnamate esters are peroxisome proliferator-activated receptor α/γ dual agonists” (Bioorg Med Chem, 2018).

Amino acid sequences for entries named in this document (tags omitted). A change or cut given only in a name is not applied to a line headed by its entry.
UniProt P37231: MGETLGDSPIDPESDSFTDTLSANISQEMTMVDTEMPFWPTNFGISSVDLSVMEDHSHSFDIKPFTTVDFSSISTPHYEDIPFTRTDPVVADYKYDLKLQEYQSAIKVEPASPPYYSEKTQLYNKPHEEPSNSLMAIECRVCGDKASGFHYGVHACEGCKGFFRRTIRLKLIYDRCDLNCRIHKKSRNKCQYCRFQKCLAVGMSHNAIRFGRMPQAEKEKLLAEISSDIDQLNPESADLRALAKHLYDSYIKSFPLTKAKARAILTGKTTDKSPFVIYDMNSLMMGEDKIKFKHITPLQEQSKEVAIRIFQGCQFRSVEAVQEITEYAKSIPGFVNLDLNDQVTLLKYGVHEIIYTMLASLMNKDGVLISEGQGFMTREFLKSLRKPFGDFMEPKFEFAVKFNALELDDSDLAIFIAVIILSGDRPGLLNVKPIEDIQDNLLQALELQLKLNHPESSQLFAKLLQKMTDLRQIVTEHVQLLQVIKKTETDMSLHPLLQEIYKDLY
UniProt Q07869: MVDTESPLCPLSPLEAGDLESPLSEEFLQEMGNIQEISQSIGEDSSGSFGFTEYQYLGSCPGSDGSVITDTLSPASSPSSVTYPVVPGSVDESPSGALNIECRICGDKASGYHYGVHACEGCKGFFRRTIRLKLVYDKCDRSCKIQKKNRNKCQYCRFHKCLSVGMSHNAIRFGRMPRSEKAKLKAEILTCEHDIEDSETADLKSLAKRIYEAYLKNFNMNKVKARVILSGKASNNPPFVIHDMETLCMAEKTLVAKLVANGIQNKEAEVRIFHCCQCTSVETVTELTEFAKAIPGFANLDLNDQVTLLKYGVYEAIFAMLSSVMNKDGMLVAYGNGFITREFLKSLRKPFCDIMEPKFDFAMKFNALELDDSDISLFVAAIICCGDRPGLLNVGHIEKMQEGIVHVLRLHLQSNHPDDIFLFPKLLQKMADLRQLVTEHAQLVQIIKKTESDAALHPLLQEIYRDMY

Biological target: PPAR alpha/gamma (Homo sapiens) (UniProt P37231+Q07869)
Assay: Agonist activity at PPARalpha/PPARgamma in human AT-MSC cells assessed as upregulation of ACAT1 mRNA at 10 uM incubated for 3 days by qRT-PCR analysis
Format: cell-based
Settings: Adipose tissue derived mesenchymal stem cell, filed as agonist, time 3.0 day

| Structure (SMILES) | fold change (FC) |
| --- | --- |
| COc1cccc(/C=C/C(=O)OCc2cc(=O)c(O)co2)c1OC | 1.91 |
| COc1ccc(OC)c(/C=C/C(=O)OCc2cc(=O)c(O)co2)c1 | 2.5 |
